Data on one compound can be found in patent publication US5885998A (priority 1998, dated 1999).

SMILES strings stand for the structures.

For the assay, the target named is nicotinic receptors (L-[3H]nicotine binding), rat brain membrane preparations. Set-up: species or system rat (Sprague-Dawley).

On to `CNCC/C=C/c1cncnc1` [Sample No. 2, (E)-N-methyl-4-(5-pyrimidinyl)-3-butene-1-amine], for which the affinity, expressed as Ki, was 86 nM.

What is called Ki is a measure of affinity in units of concentration, obtained from inhibition or displacement. Read a low Ki as a stronger hold on the target.
